Structures are written as SMILES.

Chains of the proteins cited; added tags and fusions are not shown. Lines headed by an entry give the natural chain unless they say otherwise; changes in a name come on top.
UniProt P70170: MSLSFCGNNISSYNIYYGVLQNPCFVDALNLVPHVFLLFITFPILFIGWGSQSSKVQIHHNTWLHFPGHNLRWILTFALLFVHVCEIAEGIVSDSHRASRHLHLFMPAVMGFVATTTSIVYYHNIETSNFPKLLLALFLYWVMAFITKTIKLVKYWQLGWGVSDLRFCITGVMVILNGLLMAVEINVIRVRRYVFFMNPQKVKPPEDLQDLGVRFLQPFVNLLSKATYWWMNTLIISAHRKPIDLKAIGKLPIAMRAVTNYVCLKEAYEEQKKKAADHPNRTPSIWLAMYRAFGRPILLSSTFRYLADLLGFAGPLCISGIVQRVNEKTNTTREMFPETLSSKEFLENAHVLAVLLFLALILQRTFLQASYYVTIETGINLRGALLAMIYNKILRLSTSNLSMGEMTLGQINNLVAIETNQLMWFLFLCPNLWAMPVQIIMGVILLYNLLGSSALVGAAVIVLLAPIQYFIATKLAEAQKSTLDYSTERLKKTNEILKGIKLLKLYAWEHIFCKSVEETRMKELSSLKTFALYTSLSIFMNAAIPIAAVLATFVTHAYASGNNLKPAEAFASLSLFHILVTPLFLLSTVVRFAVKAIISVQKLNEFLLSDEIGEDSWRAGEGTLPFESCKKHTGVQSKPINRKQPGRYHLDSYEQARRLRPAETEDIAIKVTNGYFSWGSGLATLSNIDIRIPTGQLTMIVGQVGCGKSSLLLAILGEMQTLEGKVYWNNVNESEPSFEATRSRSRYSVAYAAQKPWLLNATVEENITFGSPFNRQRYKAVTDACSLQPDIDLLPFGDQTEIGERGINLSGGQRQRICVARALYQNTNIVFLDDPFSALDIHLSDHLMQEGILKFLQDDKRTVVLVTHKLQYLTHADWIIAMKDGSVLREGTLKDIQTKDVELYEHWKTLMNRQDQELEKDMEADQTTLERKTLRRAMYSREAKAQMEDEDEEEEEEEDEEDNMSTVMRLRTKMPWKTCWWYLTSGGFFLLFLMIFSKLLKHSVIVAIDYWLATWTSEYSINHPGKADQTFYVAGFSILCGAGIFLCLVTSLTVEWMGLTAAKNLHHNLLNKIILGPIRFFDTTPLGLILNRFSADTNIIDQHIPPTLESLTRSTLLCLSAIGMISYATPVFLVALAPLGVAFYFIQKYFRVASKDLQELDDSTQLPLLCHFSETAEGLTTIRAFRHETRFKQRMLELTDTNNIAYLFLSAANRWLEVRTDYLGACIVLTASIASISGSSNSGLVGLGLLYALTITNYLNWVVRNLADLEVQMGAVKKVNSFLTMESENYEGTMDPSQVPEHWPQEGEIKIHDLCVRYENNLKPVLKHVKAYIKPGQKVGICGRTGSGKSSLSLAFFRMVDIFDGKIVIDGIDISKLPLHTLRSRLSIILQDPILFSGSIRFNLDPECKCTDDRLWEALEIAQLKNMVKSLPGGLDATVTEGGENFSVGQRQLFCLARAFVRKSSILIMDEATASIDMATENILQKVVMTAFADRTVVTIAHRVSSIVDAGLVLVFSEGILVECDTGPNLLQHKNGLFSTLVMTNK
UniProt Q14654, whole entry, stated change not applied: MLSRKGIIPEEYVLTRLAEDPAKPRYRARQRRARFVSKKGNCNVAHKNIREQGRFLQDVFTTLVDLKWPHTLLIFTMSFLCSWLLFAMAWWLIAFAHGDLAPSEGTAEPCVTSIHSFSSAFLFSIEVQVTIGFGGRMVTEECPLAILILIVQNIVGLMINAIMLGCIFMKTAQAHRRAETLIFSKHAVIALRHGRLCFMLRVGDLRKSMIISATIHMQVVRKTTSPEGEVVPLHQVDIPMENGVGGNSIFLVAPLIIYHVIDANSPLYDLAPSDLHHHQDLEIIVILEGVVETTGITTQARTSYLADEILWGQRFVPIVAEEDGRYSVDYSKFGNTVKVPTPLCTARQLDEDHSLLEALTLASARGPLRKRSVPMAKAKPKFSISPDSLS

Consider 1 compound from PMC2248718 (The Journal of General Physiology, 2008).

Experiment [1] concerns the target SUR2A first half deletion (Δ948–954)/Kir6.2 KATP channels expressed in HEK293 cells (UniProt P70170+Q14654, DEL948-954). As to the kind of experiment: Inside-out patch-clamp of first half ED deletion KATP channels. Type of experiment: cell-based. The note with it: glyburide 10 μM. For orientation: In patch-clamp work, channel activity is measured electrically.
For experiment [2], the target named is SUR2A second half deletion (Δ955–962)/Kir6.2 KATP channels expressed in HEK293 cells (UniProt P70170+Q14654, DEL955-962). In words: Inside-out patch-clamp of second half ED deletion KATP channels. In kind it is cell-based. The conditions noted are these: glyburide 10 μM.

For the compound `COc1ccc(Cl)cc1C(=O)NCCc1ccc(S(=O)(=O)NC(=O)NC2CCCCC2)cc1` [glyburide], the “Glyburide responsiveness compared with wild type” value in experiment [1] and in experiment [2] was “reduced glyburide responsiveness” in each case.
